Data published in article PMC7350276 (Journal of pharmaceutical and biomedical analysis, 2019).
Entries after “also recorded” stand apart in the source; their conditions may differ.

Legend:
[1] = Preclinical pharmacokinetic studies; assay type: in vivo, male Sprague Dawley rats
[2] = Analyte stability in rat plasma; assay type: in vitro ADME; conditions: mean ± S.D.; for Freeze-thaw stability in plasma: −20 °C
[3] = molecular target: κ-opioid receptors; conditions: read-out: Ki ± SEM; cited from earlier work
[4] = rabbit liver microsomes; cited from earlier work
[5] = Imaging mass spectrometry of brain tissue; assay type: in vivo, rat; conditions: 10 mg/kg I.V., 30 min post dose
[6] = molecular target: α−1D; conditions: cited from earlier work
[7] = Stock solution stability; assay type: physicochemical; conditions: fridge at 4°C, up to 7 days, mean ± S.D.
[8] = molecular target: μ-opioid receptors; conditions: read-out: Ki ± SEM; cited from earlier work
[9] = I.V. 2.5 mg/kg, male Sprague Dawley rats, mean ± S.E.M., N=4
[10] = P.O. 20 mg/kg, male Sprague Dawley rats, mean ± S.E.M., N=4

For corynantheidine, the “Plasma concentration-time profile, shape” value ([1]; I.V. 2.5 mg/kg) was “bi-exponential decay”, the “AUCinf, total exposure extrapolated” value [1, 9] was 652.9 ± 23.3 ng·h/mL and the “AUClast, total exposure up to the last measured time point” value [1, 9] was 640.3 ± 24.0 ng·h/mL. For the same substance, the “CL, clearance” value [1, 9] was 884.1 ± 32.3 mL/h, the “K, elimination rate constant” value [1, 9] was 0.1 ± 0.0 h⁻¹ and the “MRT, mean residence time” value [1, 9] was 3.0 ± 0.2 h. The “T1/2, half-life” value [1, 9] was 6.9 ± 0.0 h, the “Vd, apparent volume of distribution” value [1, 9] was 8.0 ± 1.2 L and the “Foral, absolute oral bioavailability” value ([1]; P.O. 20 mg/kg vs I.V. 2.5 mg/kg, from AUClast, mean ± S.E.M., N=4) was 49.9 ± 16.4%. For the same substance, the “CL, clearance” value [1, 10] was 1105.7 ± 613.3 mL/h, the “Cmax, maximum observed plasma concentration” value [1, 10] was 213.4 ± 40.4 ng/mL and the “MRT, mean residence time” value [1, 10] was 8.8 ± 1.8 h. The Tmax [1, 10] was 4.1 ± 1.3 h, the “Vd, apparent volume of distribution” value [1, 10] was 9.2 ± 5.1 L and the “Plasma concentration-time profile, shape” value ([1]; P.O. 20 mg/kg, suspension, 20 mg/kg) was “flip-flop kinetics with absorption rate slower than the elimination rate”. The “Time up to which corynantheidine was quantifiable in plasma” value ([1]; both I.V. and P.O. routes) was “up to 24 h”, the “Freeze-thaw stability in plasma” value ([2]; 3 freeze-thaw cycles) was 98 % ± 25 % of nominal value and the “Autosampler stability of extracted plasma samples” value ([2]; 10 °C, up to 48 h) was 96% ± 9 % of nominal value. The “Benchtop stability in plasma” value ([2]; room temperature, up to 9 h) was 88% ± 6 % of nominal value, the “Freeze-thaw stability in plasma” value ([2]; two freeze-thaw cycles) was 96% ± 5 % of nominal value and the Ki [3] was 1910 ± 45 nM. The Major metabolite pathway [4] was “O-demethylation”, the Blood-brain barrier crossing [5] was “readily crosses the blood-brain barrier” and the “Distribution in the brain (regions where detected)” value ([5]; MALDI FT-ICR imaging) was “the corpus callosum and parts of the hippocampus, such as the hippocampal commissure and the fimbria; also recorded: enters the corpus callosum and parts of hippocampal regions in the rat brain”. For the same substance, the Ki [6] was 41.7 ± 4.7 nM, the Working stock stability [7] was 93% ± 9 % of nominal value and the Ki [8] was 118 ± 11.8 nM.
